Measured affinities in a library of Ab-95 light chain variants

Antigen: PDVDLGDISGINAS, a 14-residue peptide of the SARS-CoV-2 spike HR2 region.

Parent scFv Ab-95: VH joined to VL by three GGGGS repeats. Changes lie in the light chain CDRs alone.
VH: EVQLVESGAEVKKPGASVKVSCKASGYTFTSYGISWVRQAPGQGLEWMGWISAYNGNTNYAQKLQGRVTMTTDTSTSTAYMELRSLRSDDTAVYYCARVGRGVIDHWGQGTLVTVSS
VL: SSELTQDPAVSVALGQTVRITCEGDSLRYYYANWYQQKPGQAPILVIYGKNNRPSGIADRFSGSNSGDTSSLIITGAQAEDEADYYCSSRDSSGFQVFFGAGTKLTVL

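Phage display of a naive human antibody library on the peptide gave the parent. Library AAYL52 holds single substitutions and randomly drawn double and triple substitutions in the CDRs. The assay is AlphaSeq: two haploid yeast populations carry antibody and antigen on their surface. After mating in shaken culture at 30 °C for 16 h, diploids were selected and their barcode pairs sequenced. A regression on co-assayed BCL2-family reference pairs converts the normalised counts of each replicate to an apparent Kd. Mating was done three times.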

The parent's light chain CDRs are EGDSLRYYYAN, GKNNRPS, SSRDSSGFQVF; each variant's own CDRs replace them letter for letter.
Values are log10 of the apparent Kd in nM; lower means stronger binding.
An entry "ND" has no value in the source: the pair was not observed among the diploids in that replicate. This suggests poor binding but is not conclusive.
Parent in this assay: reference entry 2.31, copy in this library 2.25.
Nonspecific signal, from three strains lacking the peptide, appeared in 28% of pairings of library AAYL52, centred on 3.91 (5% of these signals below 2.90); values are not corrected for it. The control count says in how many pairings with the empty strains this scFv gave a signal, with their mean in brackets.

CDR-L1	CDR-L2	CDR-L3	log10 Kd, replicates	empty controls
EGGSLRYYYAH	GKNNRPS	SSRRSSGFQVF	ND ND ND	5 of 9 (4.13)
EGSSGRYYYAN	GKNNRPS	SSRDSDGFQVF	2.85 2.07 1.68	6 of 9 (3.67)
EGDSLRYGYAW	GKNCRPS	SSRDSSGFQVF	3.29 ND 3.99	0 of 9
EGDSLRYYYVN	GRNNRPS	SSRDSSGTQVF	2.42 2.65 2.04	2 of 9 (4.64)
EGDSLAYYYEN	GKNNRPS	SSRDWSGFQVF	4.22 ND ND	1 of 9 (3.52)
GGDSLRYYFAN	GKNNRPS	SSRHSSGFQVF	2.85 3.35 3.62	1 of 9 (3.42)
EGDSLRYYYAN	GWNNRPV	SSRDSSGFQVD	5.71 3.84 4.13	3 of 9 (4.41)
EGHSLRYHYAN	GKNNRPS	SSKDSSGFQVF	1.78 1.51 1.50	2 of 9 (4.60)
EGDSLRYAYLN	GKNNRPS	SSRDSSGCQVF	2.66 3.22 3.21	3 of 9 (3.76)
EGDSARYYYEN	GKNNRPS	SSRDSSWFQVF	3.68 ND ND	2 of 9 (3.73)
ERDSLRFYYAV	GKNNRPS	SSRDSSGFQVF	ND ND ND	2 of 9 (3.60)
EGDSLRYYYAN	GVNNRPS	SSRDSSWFQFF	ND ND ND	0 of 9
EHDSLRYYYAN	GKNLRPS	SSQDSSGFQVF	2.50 3.54 4.06	4 of 9 (3.31)
ERDSLRYYYAN	GKNNRQS	SSRDSIGFQVF	ND ND ND	1 of 9 (2.96)
EGDSLREYYAN	GKNNRPS	SSRDGSGQQVF	3.01 2.60 3.38	1 of 9 (2.97)
YADSLRYYYAN	GKNNRPS	SSRASSGFQVF	3.47 3.27 3.46	5 of 9 (4.25)
EGDSLRYAYAN	GKNNRSS	SSRDSSGFQDF	2.07 2.65 3.07	1 of 9 (3.99)
EGDSLRYYYAN	GKNNRPS	YSFDSSGFDVF	ND 3.94 4.16	0 of 9
EGDSLRYYYAN	GLNNRPS	QSRDSSGVQVF	ND 2.77 3.86	2 of 9 (3.65)
EGDSLRYYYAN	GKNNRDS	SSRDSSGFQVF	3.02 3.79 1.74	2 of 9 (4.31)
EGDSQRYYYEN	GFNNRPS	SSRDSSGFQVF	ND ND ND	2 of 9 (3.91)
EGDSLRTYYAN	GKNNRPS	SSRDSSDFEVF	2.63 2.18 2.45	6 of 9 (3.87)
EGDSLRYYYQN	GENNRPS	SSRDSSGFQVF	ND ND ND	2 of 9 (3.22)
EGDSLRYYYAN	GKNNRPC	NFRDSSGFQVF	3.99 ND ND	0 of 9
EGDSLRYYYAN	GKNNFPI	SSRPSSGFQVF	4.67 ND 4.42	1 of 9 (4.61)
EGDSLRYWYAN	GKNNRPS	SSPLSSGFQVF	3.15 3.95 ND	2 of 9 (4.56)
EGDSLRYYYAN	GKNNRPS	SSRRSSGFQNF	ND ND ND	0 of 9
EGDSLRYYHAN	GKNNRPS	GSRDSSGFQVF	1.75 1.49 1.72	1 of 9 (4.18)
EGDSLRYYYAN	GKNNNPS	SSRDSSSFPVF	ND 3.67 ND	3 of 9 (3.35)
EGDSLRIYYAN	GKENRPS	SHRDSSGFQVF	ND 4.09 ND	0 of 9
EGDSLRYYYAN	GKNNRPS	SSRDSSGHQVF	3.75 2.40 2.74	3 of 9 (4.57)
EGDSERYYYAN	GKNNKPW	SSRDSSGFQVF	4.41 ND 4.85	4 of 9 (4.23)
EIDSLRYYYAN	GKNNRPS	SSRDSKGFRVF	ND ND ND	0 of 9
LGDSLRYYYAN	GKNNRMS	SSRTSSGFQVF	3.53 2.86 4.28	5 of 9 (4.27)
EGDSLRYYGAN	GKNNRPS	SSRDSSGFPVF	2.45 2.34 1.72	4 of 9 (4.19)
EGLSLRIYYAN	GKNNRPS	SSRDNSGFQVF	3.70 ND ND	2 of 9 (4.18)
EGDSWDYYYAN	GKNNRMS	SSRDSSGFQVF	ND ND ND	3 of 9 (4.25)
EGDSLRYYSAN	GKNNRPS	SSGDSSGFWVF	2.02 2.02 1.52	0 of 9
EGDSLRYYYAN	GKCNRPS	DSRDSSGFQGF	ND ND ND	2 of 9 (3.59)
EGDSLRYYYIN	GKNNYPS	SSPDSSGFQVF	ND ND ND	2 of 9 (3.49)
EGDSLRYYYFN	SKNNRPS	SYRDSSGFQVF	ND ND ND	4 of 9 (4.21)
EGPSLRYYYAN	GKNNRPS	VSRDSSGFQVF	2.88 3.17 3.29	0 of 9
LGDSLRYYYAN	GKNNRPS	SSRDSDGFQVY	3.72 3.62 2.11	3 of 9 (4.24)
EGDSLRYYYAN	GKNNRNS	VSRDSVGFQVF	2.61 2.35 1.81	2 of 9 (3.96)
EGDSLRYYYAI	GKNNRTT	SSRDSSGFQVF	3.35 3.42 3.79	2 of 9 (3.87)
HGLSLRYYYAN	GKNNRGS	SSRDSSGFQVF	3.68 2.72 2.95	3 of 9 (3.58)
EGDSLRYYYAN	GKNNRES	SSRDSSGFQYH	3.70 3.45 3.18	5 of 9 (4.80)
EQDFLRYYYAN	GKNNRPS	SSCDSSGFQVF	4.25 5.18 ND	0 of 9
LGDSLRYNYAN	GKNNRPS	SSRDSDGFQVF	1.57 1.62 1.18	2 of 9 (3.61)

A selection of 6 entries from above:

CDR-L1	CDR-L2	CDR-L3	log10 Kd, replicates	empty controls
EGDSERYYYAN	GKNNKPW	SSRDSSGFQVF	4.41 ND 4.85	4 of 9 (4.23)
EGDSLRYAYAN	GKNNRSS	SSRDSSGFQDF	2.07 2.65 3.07	1 of 9 (3.99)
YADSLRYYYAN	GKNNRPS	SSRASSGFQVF	3.47 3.27 3.46	5 of 9 (4.25)
EGDSLRYYHAN	GKNNRPS	GSRDSSGFQVF	1.75 1.49 1.72	1 of 9 (4.18)
EGDSLRYYYAN	GKCNRPS	DSRDSSGFQGF	ND ND ND	2 of 9 (3.59)
EGDSLRYYGAN	GKNNRPS	SSRDSSGFPVF	2.45 2.34 1.72	4 of 9 (4.19)

Data: MIT Lincoln Laboratory AlphaSeq set, Engelhart et al. 2022, doi:10.1038/s41597-022-01779-4, as distributed in FLAb.